Source: PubChem BioAssay AID489030 (Sanford-Burnham Center for Chemical Genomics, 2010)
The entries are a selection whose mix differs from that of the whole data set. Active and inactive are the calls of the source. Rule for the calls: active = inhibition of at least 40% at 20 µM; inactive = the rest.

The chains behind the UniProt entries cited, without tags or fusion partners.
UniProt O14727, whole entry: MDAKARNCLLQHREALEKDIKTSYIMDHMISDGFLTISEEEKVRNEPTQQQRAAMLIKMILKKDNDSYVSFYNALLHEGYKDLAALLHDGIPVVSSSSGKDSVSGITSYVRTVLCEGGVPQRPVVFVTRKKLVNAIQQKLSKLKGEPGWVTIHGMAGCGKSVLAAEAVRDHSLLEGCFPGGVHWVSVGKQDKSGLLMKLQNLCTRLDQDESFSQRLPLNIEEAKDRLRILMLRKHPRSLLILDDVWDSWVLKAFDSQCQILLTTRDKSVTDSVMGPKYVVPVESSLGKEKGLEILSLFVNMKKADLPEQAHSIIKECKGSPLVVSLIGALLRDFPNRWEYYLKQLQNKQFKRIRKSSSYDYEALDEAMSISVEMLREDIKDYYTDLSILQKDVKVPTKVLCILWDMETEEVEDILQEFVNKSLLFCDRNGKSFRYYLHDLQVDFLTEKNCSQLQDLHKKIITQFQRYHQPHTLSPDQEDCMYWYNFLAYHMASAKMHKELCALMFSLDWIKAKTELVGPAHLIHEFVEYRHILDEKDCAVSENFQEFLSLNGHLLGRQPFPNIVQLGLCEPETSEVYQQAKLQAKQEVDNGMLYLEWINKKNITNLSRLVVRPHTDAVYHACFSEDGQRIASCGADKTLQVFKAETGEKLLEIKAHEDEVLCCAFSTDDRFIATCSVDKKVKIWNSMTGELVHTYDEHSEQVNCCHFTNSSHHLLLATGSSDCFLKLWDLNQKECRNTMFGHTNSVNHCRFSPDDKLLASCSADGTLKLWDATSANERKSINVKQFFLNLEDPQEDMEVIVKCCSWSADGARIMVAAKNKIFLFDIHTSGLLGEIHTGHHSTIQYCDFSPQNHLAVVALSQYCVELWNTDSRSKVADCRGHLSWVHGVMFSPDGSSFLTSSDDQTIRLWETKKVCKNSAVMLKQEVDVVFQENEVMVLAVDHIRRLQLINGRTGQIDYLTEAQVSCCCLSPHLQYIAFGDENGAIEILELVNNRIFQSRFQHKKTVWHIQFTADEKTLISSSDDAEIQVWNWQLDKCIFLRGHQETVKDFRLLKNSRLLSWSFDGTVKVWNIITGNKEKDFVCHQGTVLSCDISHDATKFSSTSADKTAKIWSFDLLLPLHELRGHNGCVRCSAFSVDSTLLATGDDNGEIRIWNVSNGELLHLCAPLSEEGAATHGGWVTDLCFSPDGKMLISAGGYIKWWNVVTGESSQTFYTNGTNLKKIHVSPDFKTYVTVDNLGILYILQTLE

target: Apoptotic protease-activating factor 1 (Homo sapiens) (UniProt O14727); experiment: blockers of Apaf-1-driven caspase-3 activation – biochemical, DEVD-Rh110 fluorescence, uHTS, primary screen (AID 489030); conditions: reconstituted apoptosome caspase-3 activity, at 20 µM, active compounds read high;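 note: plate controls were DMSO wells for no effect and DEVD-CHO caspase inhibitor wells for full effect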

| Compound | inhibition |
| --- | --- |
| Cc1cc(C)cc(OP(C)(=O)Nc2ccccn2)c1 (stereo not drawn) | inactive: -1.83% |
| CP(=O)(Nc1cccc(Br)c1)Oc1ccccc1 (stereo not drawn) | inactive: -2.92% |
| Cc1ccc(C)c(NP(C)(=O)Oc2ccccc2)c1 (stereo not drawn) | inactive: 7.56% |
| COc1ccccc1OP(C)(=O)Nc1cccc(Br)c1 (stereo not drawn) | inactive: 3.48% |
| Cc1cc(C)cc(OP(C)(=O)Nc2ccc(C)cc2C)c1 (stereo not drawn) | inactive: -6.08% |
| CCOC(=O)c1ccc(NP(C)(=O)Oc2cc(C)cc(C)c2)cc1 (stereo not drawn) | inactive: -0.64% |
| CC1=NCCc2c1[nH]c1ccccc21.O=[N+]([O-])c1cc([N+](=O)[O-])c(O)c([N+](=O)[O-])c1 | inactive: 4.61% |
| O=C(O)c1cccc(Nc2c([N+](=O)[O-])cc([N+](=O)[O-])cc2[N+](=O)[O-])c1 | inactive: 13.8% |
| CN1CCCCC1COC(=O)C1(O)c2ccccc2CCc2ccccc21 (stereo not drawn) | inactive: -0.974% |
| COc1ccccc1OP(C)(=O)Nc1c(C)cccc1C (stereo not drawn) | inactive: 4.24% |
| CCCOc1ccc(NP(C)(=O)Oc2ccc(Cl)cc2)cc1 (stereo not drawn) | inactive: 13.9% |
| CP(=O)(Nc1ccc(SC(F)(F)F)cc1)Oc1ccccc1 (stereo not drawn) | inactive: 4.91% |
| CCOC(=O)C(CC)C1=NC(C)(C)Cc2ccccc21.O=[N+]([O-])c1cc([N+](=O)[O-])c(O)c([N+](=O)[O-])c1 (stereo not drawn) | inactive: -14.5% |
| CC1=C2N=C(C=C3N=C(C(C)=C4[N-][C@@](C)([C@@H]5N=C1[C@](C)(CCC(=O)NC[C@@H](C)OP(=O)([O-])O[C@H]1[C@@H](O)[C@@H](n6cnc7cc(C)c(C)cc76)O[C@@H]1CO)[C@H]5CC(N)=O)[C@@](C)(CC(N)=O)[C@@H]4CCC(N)=O)[C@@](C)(CC(N)=O)[C@@H]3CCC(N)=O)C(C)(C)[C@@H]2CCC(N)=O.[C-]#N.[Co+3] | active: 99.1% |
| O=[N+]([O-])c1cc([N+](=O)[O-])c(Nc2nnnn2CCO)c([N+](=O)[O-])c1 | inactive: -0.183% |
| O=[N+]([O-])c1cc([N+](=O)[O-])c(-c2cnn(-c3ccccc3)c2)c([N+](=O)[O-])c1 | inactive: -6.66% |
| Cc1nc2ccc3ccccc3c2s1.O=[N+]([O-])c1cc([N+](=O)[O-])c(O)c([N+](=O)[O-])c1 | inactive: 15.4% |
| O=[N+]([O-])c1cc([N+](=O)[O-])c(-n2nnc3ccccc32)c([N+](=O)[O-])c1 | inactive: 10.6% |
| CCOP(C)(=S)SCC(=O)NC(C)C(=O)O (stereo not drawn) | inactive: -5.47% |
| O=[N+]([O-])c1cc([N+](=O)[O-])c(O)c([N+](=O)[O-])c1.c1ccc(Oc2ccncc2)cc1 | inactive: 0.656% |
| CCOC(=O)c1ccc(NP(C)(=O)Oc2ccc(OC)cc2)cc1 (stereo not drawn) | inactive: -7.26% |
| CP(=O)(Nc1ccccn1)Oc1ccc(Cl)cc1 (stereo not drawn) | inactive: -3.76% |

| Compound | inhibition |
| --- | --- |
| CP(=O)(Oc1ccccc1)OC(c1ccccc1)C(F)(F)F (stereo not drawn) | inactive: 15.7% |
| CP(=O)(Nc1ccc(SC(F)(F)F)cc1)Oc1ccc(Cl)cc1 (stereo not drawn) | inactive: 10.4% |
| Cc1cccc(C)c1OP(C)(=O)Nc1ccc(SC(F)(F)F)cc1 (stereo not drawn) | inactive: 28.5% |
| Cc1cc(C)cc(OP(C)(=O)Nc2ccc(SC(F)(F)F)cc2)c1 (stereo not drawn) | inactive: 11.2% |
| CP(=O)(NC(=O)Nc1ccccc1)Oc1ccccc1 (stereo not drawn) | inactive: -9.35% |
| CCc1ccc(OP(C)(=O)N2CCN(c3ccc([N+](=O)[O-])cc3)CC2)cc1 (stereo not drawn) | inactive: 1.54% |
| CP(=S)(Nn1cnnc1)Oc1ccccc1 (stereo not drawn) | inactive: -4.82% |
| COc1ccccc1OP(C)(=O)Nc1ccccc1 (stereo not drawn) | inactive: -0.127% |
| CP(=O)(Nc1ccccc1Br)Oc1ccccc1 (stereo not drawn) | inactive: -2.17% |
| CCOC(=O)c1ccc(NP(C)(=O)Oc2ccccc2)cc1 (stereo not drawn) | inactive: -5.6% |
| Cc1ccc(NP(C)(=O)Oc2ccccc2)c(C)c1 (stereo not drawn) | inactive: 0.101% |
| COc1ccccc1OP(C)(=O)Nc1ccc(C)cc1 (stereo not drawn) | inactive: 1.08% |
| COc1ccc(OP(C)(=O)Nc2cccc(F)c2)cc1 (stereo not drawn) | inactive: 4.3% |
| COc1ccccc1OP(C)(=O)Nc1cc(Cl)ccc1C (stereo not drawn) | inactive: -0.578% |
| Cc1cc(C)cc(OP(C)(N)=O)c1 (stereo not drawn) | inactive: -0.464% |
| O=[N+]([O-])c1cc([N+](=O)[O-])c(Nc2cccnc2)c([N+](=O)[O-])c1 | inactive: 7.03% |
| Cc1cccc(C)c1OP(C)(N)=O (stereo not drawn) | inactive: -6.25% |
| CC(C)(C)c1ccc(OP(C)(=O)Nc2ccc(SC(F)(F)F)cc2)cc1 (stereo not drawn) | inactive: 25.2% |
| CCN(CC)CCCOC(=O)C(O)(c1ccccc1)c1ccccc1 | inactive: -2.47% |
| Cc1c(NP(C)(=O)Oc2ccc(C(C)C)cc2)c(=O)n(-c2ccccc2)n1C (stereo not drawn) | inactive: -2.87% |
| O=[N+]([O-])c1cc([N+](=O)[O-])c(Nc2ccccn2)c([N+](=O)[O-])c1 | active: 62.9% |
